The record followed here is publication PMC5602572, “New carboxamide derivatives bearing benzenesulphonamide as a selective COX-II inhibitor: Design, synthesis and structure-activity relationship” (PLoS ONE, 2017).

This assay deals with T1, COX-2 (Ovis aries, UniProt P79208).
T1 construct: purchased Cayman chemicals, USA
T1 sequence (P79208 17-603): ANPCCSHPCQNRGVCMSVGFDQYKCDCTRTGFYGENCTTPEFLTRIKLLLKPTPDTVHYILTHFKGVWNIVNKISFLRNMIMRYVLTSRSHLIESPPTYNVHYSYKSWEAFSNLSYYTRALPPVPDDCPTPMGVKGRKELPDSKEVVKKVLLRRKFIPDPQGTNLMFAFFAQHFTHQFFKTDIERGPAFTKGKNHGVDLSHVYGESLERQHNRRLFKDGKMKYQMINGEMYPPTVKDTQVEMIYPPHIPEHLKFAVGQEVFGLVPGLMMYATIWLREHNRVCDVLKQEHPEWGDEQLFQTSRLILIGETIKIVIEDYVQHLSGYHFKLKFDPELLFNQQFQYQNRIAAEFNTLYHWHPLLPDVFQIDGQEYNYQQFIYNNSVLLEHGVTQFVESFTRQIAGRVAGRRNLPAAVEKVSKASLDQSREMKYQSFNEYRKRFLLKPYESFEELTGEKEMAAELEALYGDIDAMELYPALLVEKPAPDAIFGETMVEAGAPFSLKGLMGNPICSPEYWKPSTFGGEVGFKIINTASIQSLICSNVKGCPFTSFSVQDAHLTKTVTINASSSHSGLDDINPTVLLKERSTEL
As to the kind of experiment: In vitro cyclooxygenase inhibitory assay (Cayman colorimetric COX (ovine) inhibitor screening kit), COX-2. It counts as biochemical. The conditions noted are these: for S I (selectivity COX-2/COX-1): ratio of % inhibition COX-2/COX-1 at 2.0 μM; for selectivity for COX-2 (in words): from COX-2/COX-1 % inhibition at 2.0 μM. How it is done: The calculations were performed as per the kit guidelines.

Structures are written as SMILES.

In the case of `Cc1ccnc(NC(=O)[C@H](Cc2cc3ccccc3[nH]2)N(C(=O)c2ccccc2)S(=O)(=O)c2ccc([N+](=O)[O-])cc2)c1` [Compound 7c, (2S)-3-(1H-indol-2-yl)-N-(4-methylpyridin-2-yl)-2-[N-(4-nitrobenzenesulfonyl)-1-phenylformamido]propanamide], the “S I (selectivity COX-2/COX-1)” value was determined as 35.

Take `Cc1ccnc(NC(=O)[C@@H]2CC(O)CN2S(=O)(=O)c2ccc([N+](=O)[O-])cc2)c1` (stereo partly drawn) [Compound 7g, (2S)-4-Hydroxy-N-(4-methylpyridin-2-yl)-1-(4-nitrobenzenesulfonyl)pyrrolidine-2-carboxamide]: the “selectivity for COX-2 (in words)” value is on record as “non-selective” and the “S I (selectivity COX-2/COX-1)” value is listed as 1.11.

As for `Cc1ccnc(NC(=O)[C@@H]2CCCN2S(=O)(=O)c2ccc([N+](=O)[O-])cc2)c1` [Compound 7h, (2S)-N-(4-methylpyridin-2-yl)-1-(4-nitrobenzenesulfonyl)pyrrolidine-2-carboxamide], the “selectivity for COX-2 (in words)” value is given as “non-selective” and the “S I (selectivity COX-2/COX-1)” value was 0.43.

`Cc1ccc(S(=O)(=O)N2CC(O)C[C@H]2C(=O)Nc2cc(C)ccn2)cc1` (stereo partly drawn) [Compound 7o, (2S)-4-Hydroxy-1-(4-methylbenzenesulfonyl)-N-(4-methylpyridin-2-yl)pyrrolidine-2-carboxamide]: the “S I (selectivity COX-2/COX-1)” value amounted to 3.00.

Regarding `Cc1ccc(S(=O)(=O)N2CCC[C@H]2C(=O)Nc2cc(C)ccn2)cc1` [Compound 7p, (2S)-1-(4-Methylbenzenesulfonyl)-N-(4-methylpyridin-2-yl)pyrrolidine-2-carboxamide], the “S I (selectivity COX-2/COX-1)” value stood at 2.5.
